Patent publication US6368619B1, “Hydrophobic preparations of hydrophilic species and process for their preparation” (Provalis UK Limited, priority 1993, dated 2002)

Key:
[1] = Percent sedimentation after 24 hours of macromolecules dispersed in oleic acid with and without PC; format: physicochemical; conditions: 300 μl oleic acid, error ±5%
Experimental: 10 mg of cytochrome C, haemoglobin and FITC-dextran were each dissolved in 1 ml of distilled water. 4.4 mg of RNA (extracted from Torula yeast) was dissolved in 1 ml of phosphate-buffered saline. 2×50 μl of each of these solution was dispensed into fresh glass tubes, and to one of each of these sets of solutions was added 250 μl of SUVs prepared as in example 1 at a concentration of 40 mg/ml of egg yolk lecithin (PC).
Both sets of tubes were shell-frozen and lyophilised overnight as above. The following day 300 μl of oleic acid was added to each of the tubes. The samples were left to stand at room temperature with occasional vortexing for one hour until complete dispersion had been achieved. The oils were allowed to stand overnight. The turbidity of the samples prepared without PC was greater than those containing PC.
The following day, sediments had settled out in the samples prepared without PC. Without disturbing any of the samples, the top 150 μl of each sample was taken off, and the absorbances measured of both the material removed, and the material left behind, after mixing; comparison of the two readings allowed one to calculate the percentage sedimentation for samples with and without PC (error in measurements ±5%) Values obtained are listed below.

[2] = Dispersion of hydrophilic species/amphiphile array in hydrophobic solvent: visual optical clarity; format: physicochemical; conditions: Example 15: 1 mg, 0.2 g egg PC SUVs, oleic acid, within 2 hours

Percent sedimentation after 24 hours, +PC ([1]; Example 17: with egg yolk PC SUVs) [%] | Percent sedimentation after 24 hours, −PC ([1]; Example 17: without PC) [%] | Substance | appearance of dispersion [2]
0 | 68 | FITC dextran [reference compound] | –
– | – | Nisin [reference compound] | crystal clear dispersion
